The text below walks through data of patent US20220024982A1, “BICYCLIC PEPTIDE LIGANDS SPECIFIC FOR MT1-MMP” (BicycleTx Limited, priority 2018, published 2022).

The target in this test is human MT1 MMP14 protein, hemopexin domain (obtained from Merck Millipore) (human) (UniProt P50281). In words: SPR, biotinylated target on streptavidin chip. In general terms: In SPR one partner is held on a chip, and binding of the other changes the refractive index at the surface.

A word on the Kd: it is the equilibrium constant for the complex coming apart. Take BCY12403 (peptide): the Kd worked out at 56.1 nM.
